{
  "sequences": {"note": "Amino acid sequences for entries named in this document (tags omitted).", "UniProt P62136, whole entry": "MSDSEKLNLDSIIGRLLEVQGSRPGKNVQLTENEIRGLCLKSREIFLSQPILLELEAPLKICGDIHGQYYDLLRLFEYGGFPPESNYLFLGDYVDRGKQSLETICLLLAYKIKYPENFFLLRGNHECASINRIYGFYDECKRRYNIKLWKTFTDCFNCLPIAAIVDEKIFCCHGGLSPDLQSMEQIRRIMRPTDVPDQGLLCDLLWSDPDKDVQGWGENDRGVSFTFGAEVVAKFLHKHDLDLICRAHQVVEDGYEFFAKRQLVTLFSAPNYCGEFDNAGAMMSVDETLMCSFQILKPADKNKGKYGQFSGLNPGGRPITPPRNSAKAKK"},
  "source": "PubChem BioAssay AID2235",
  "about": "(The Scripps Research Institute Molecular Screening Center, 2010)",
  "note": "The entries are a selection whose mix differs from that of the whole data set. Activity calls are given as the source filed them.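 The calls were made as follows: active = inhibition above the mean inhibition of all tested compounds plus 3 SD, computed separately for each screening campaign (cut at about 15% in these data); inactive = the rest.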",
  "data": [
    {"molecular_target": "Serine/threonine-protein phosphatase PP1-alpha catalytic subunit (Homo sapiens) (UniProt P62136)", "test": "inhibition of human PP1 catalytic subunit – biochemical, fluorescence, OMFP substrate, single point, counter-screen for PP5 inhibitor project, primary screen (AID 2235)", "conditions": "purified PP1alpha, at 6.7 µM, hits give high values", "values": [
      {"compound": "COc1ccc(NP(C)(=O)Oc2ccccc2OC)cc1", "note": "(centres undefined)", "inhibition": "inactive: -2.65%"},
      {"compound": "COc1ccc(OP(C)(=O)Nc2cccc(Br)c2)cc1", "note": "(centres undefined)", "inhibition": "inactive: 0.86%"},
      {"compound": "CP(=O)(Nc1ccc(SC(F)(F)F)cc1)Oc1ccccc1", "note": "(centres undefined)", "inhibition": "inactive: 0.96%"},
      {"compound": "CCCOc1ccc(NP(C)(=O)Oc2ccc(Cl)cc2)cc1", "note": "(centres undefined)", "inhibition": "inactive: -1.61%"},
      {"compound": "COc1ccccc1OP(C)(=O)Nc1c(C)cccc1C", "note": "(centres undefined)", "inhibition": "inactive: -1.54%"},
      {"compound": "CN1CCCCC1COC(=O)C1(O)c2ccccc2CCc2ccccc21", "note": "(centres undefined)", "inhibition": "inactive: 2.24%"},
      {"compound": "CCOC(=O)C(CC)C1=NC(C)(C)Cc2ccccc21.O=[N+]([O-])c1cc([N+](=O)[O-])c(O)c([N+](=O)[O-])c1", "note": "(centres undefined)", "inhibition": "inactive: -4.13%"},
      {"compound": "O=[N+]([O-])c1cc([N+](=O)[O-])c(Nc2nnnn2CCO)c([N+](=O)[O-])c1", "inhibition": "inactive: -0.6%"},
      {"compound": "CC1=C2N=C(C=C3N=C(C(C)=C4[N-][C@@](C)([C@@H]5N=C1[C@](C)(CCC(=O)NC[C@@H](C)OP(=O)([O-])O[C@H]1[C@@H](O)[C@@H](n6cnc7cc(C)c(C)cc76)O[C@@H]1CO)[C@H]5CC(N)=O)[C@@](C)(CC(N)=O)[C@@H]4CCC(N)=O)[C@@](C)(CC(N)=O)[C@@H]3CCC(N)=O)C(C)(C)[C@@H]2CCC(N)=O.[C-]#N.[Co+3]", "inhibition": "inactive: 4.68%"},
      {"compound": "Cc1nc2ccc3ccccc3c2s1.O=[N+]([O-])c1cc([N+](=O)[O-])c(O)c([N+](=O)[O-])c1", "inhibition": "inactive: -6.84%"},
      {"compound": "O=[N+]([O-])c1cc([N+](=O)[O-])c(-c2cnn(-c3ccccc3)c2)c([N+](=O)[O-])c1", "inhibition": "inactive: -2.21%"},
      {"compound": "O=[N+]([O-])c1cc([N+](=O)[O-])c(-n2nnc3ccccc32)c([N+](=O)[O-])c1", "inhibition": "inactive: -1.07%"},
      {"compound": "Cc1ccc(C)c(NP(C)(=O)Oc2ccccc2)c1", "note": "(centres undefined)", "inhibition": "inactive: -0.2%"},
      {"compound": "CP(=O)(Nc1cccc(Br)c1)Oc1ccccc1", "note": "(centres undefined)", "inhibition": "inactive: -2.84%"},
      {"compound": "Cc1cc(C)cc(OP(C)(=O)Nc2ccccn2)c1", "note": "(centres undefined)", "inhibition": "inactive: -5.11%"},
      {"compound": "CCOC(=O)c1ccc(NP(C)(=O)Oc2cc(C)cc(C)c2)cc1", "note": "(centres undefined)", "inhibition": "inactive: 1.72%"},
      {"compound": "Cc1cc(C)cc(OP(C)(=O)Nc2ccc(C)cc2C)c1", "note": "(centres undefined)", "inhibition": "inactive: 0.03%"},
      {"compound": "COc1ccccc1OP(C)(=O)Nc1cccc(Br)c1", "note": "(centres undefined)", "inhibition": "inactive: -1.13%"},
      {"compound": "CC1=NCCc2c1[nH]c1ccccc21.O=[N+]([O-])c1cc([N+](=O)[O-])c(O)c([N+](=O)[O-])c1", "inhibition": "inactive: -0.15%"},
      {"compound": "O=C(O)c1cccc(Nc2c([N+](=O)[O-])cc([N+](=O)[O-])cc2[N+](=O)[O-])c1", "inhibition": "inactive: -3.75%"},
      {"compound": "Cc1cc(C)cc(OP(C)(N)=O)c1", "note": "(centres undefined)", "inhibition": "inactive: -4.21%"},
      {"compound": "COc1ccc(OP(C)(=O)Nc2cccc(F)c2)cc1", "note": "(centres undefined)", "inhibition": "inactive: -7.32%"},
      {"compound": "COc1ccccc1OP(C)(=O)Nc1cc(Cl)ccc1C", "note": "(centres undefined)", "inhibition": "inactive: -1.19%"},
      {"compound": "Cc1ccc(NP(C)(=O)Oc2ccccc2)c(C)c1", "note": "(centres undefined)", "inhibition": "inactive: 3.1%"},
      {"compound": "COc1ccccc1OP(C)(=O)Nc1ccc(C)cc1", "note": "(centres undefined)", "inhibition": "inactive: 0.58%"},
      {"compound": "CCOC(=O)c1ccc(NP(C)(=O)Oc2ccccc2)cc1", "note": "(centres undefined)", "inhibition": "inactive: -3.1%"},
      {"compound": "O=[N+]([O-])c1ccc2c(c1)C=Nc1ccccc1O2", "inhibition": "inactive: -2.14%"},
      {"compound": "Cc1cccc(C)c1OP(C)(N)=O", "note": "(centres undefined)", "inhibition": "inactive: 1.49%"},
      {"compound": "CC(C)(C)c1ccc(OP(C)(=O)Nc2ccc(SC(F)(F)F)cc2)cc1", "note": "(centres undefined)", "inhibition": "inactive: 7.57%"},
      {"compound": "O=[N+]([O-])c1cc([N+](=O)[O-])c(Nc2cccnc2)c([N+](=O)[O-])c1", "inhibition": "inactive: -1.74%"},
      {"compound": "CCN(CC)CCCOC(=O)C(O)(c1ccccc1)c1ccccc1", "inhibition": "inactive: 1.61%"},
      {"compound": "CP(=O)(Nc1ccccn1)Oc1ccc(Cl)cc1", "note": "(centres undefined)", "inhibition": "inactive: -1.54%"},
      {"compound": "CCOC(=O)c1ccc(NP(C)(=O)Oc2ccc(OC)cc2)cc1", "note": "(centres undefined)", "inhibition": "inactive: 0.91%"},
      {"compound": "O=[N+]([O-])c1cc([N+](=O)[O-])c(O)c([N+](=O)[O-])c1.c1ccc(Oc2ccncc2)cc1", "inhibition": "inactive: -4.36%"},
      {"compound": "CCOP(C)(=S)SCC(=O)NC(C)C(=O)O", "note": "(centres undefined)", "inhibition": "inactive: 3.61%"},
      {"compound": "Cc1cc(C)cc(OP(C)(=O)Nc2ccc(SC(F)(F)F)cc2)c1", "note": "(centres undefined)", "inhibition": "inactive: 7.33%"},
      {"compound": "CCc1ccc(OP(C)(=O)N2CCN(c3ccc([N+](=O)[O-])cc3)CC2)cc1", "note": "(centres undefined)", "inhibition": "inactive: 1.73%"},
      {"compound": "CP(=O)(NC(=O)Nc1ccccc1)Oc1ccccc1", "note": "(centres undefined)", "inhibition": "inactive: -1.8%"},
      {"compound": "CP(=O)(Oc1ccccc1)OC(c1ccccc1)C(F)(F)F", "note": "(centres undefined)", "inhibition": "inactive: 0.37%"},
      {"compound": "Cc1cccc(C)c1OP(C)(=O)Nc1ccc(SC(F)(F)F)cc1", "note": "(centres undefined)", "inhibition": "inactive: -8.82%"},
      {"compound": "CP(=O)(Nc1ccc(SC(F)(F)F)cc1)Oc1ccc(Cl)cc1", "note": "(centres undefined)", "inhibition": "inactive: 3.17%"},
      {"compound": "CP(=O)(Nc1ccccc1Br)Oc1ccccc1", "note": "(centres undefined)", "inhibition": "inactive: -3.74%"},
      {"compound": "COc1ccccc1OP(C)(=O)Nc1ccccc1", "note": "(centres undefined)", "inhibition": "inactive: -7.06%"},
      {"compound": "CP(=S)(Nn1cnnc1)Oc1ccccc1", "note": "(centres undefined)", "inhibition": "inactive: 0.7%"}
    ]}
  ]
}
